# Measured values published in patent EP4129319A1, “PORE-FORMING ANTIMICROBIAL PEPTIDES” (priority 2021, dated 2023).
# Tested on: human red blood cells (HRBCs)
# Type: cell-based
# Conditions: hemolysis assay, read-out: Toxicity (EC50 in µM) HRBCs
# Protocol: Chemicals. […] (Prague, Czech Republic), and Caslo ApS (Kongens Lyngby, Denmark). […] The bacterial stock was stored at -80°C.
# Hemolysis assay. Hemolytic toxicity of the peptides was evaluated from their ability to lyse the fresh human red blood cells (HRBCs) collected from the University Hospital (Brno, Czech Republic). To obtain the erythrocyte pellets, the blood samples were centrifuged twice at 700×g and subsequently, once at 1000×g, each for 8 min. at 4 °C, which was followed by thorough washing with PBS. Resuspension of the pellets was done in PBS to obtain 0.5% (vol/vol) RBC suspension. In a well plate with 96 V-shaped bottom wells, the peptides were added in a dilution series from 0.1 to 50 µM concentration. Subsequently, HRBC suspension was added in each well. Negative control wells contained only PBS and HRBC suspension without any peptide (i.e., 0% lysis), and positive control wells included 5 µM melittin in the HRBC suspension. After incubation for 1 h at 37 °C, the well plates were centrifuged at 1000×g for 10 min. at 4 °C. Subsequently, the supernatant was collected in a flat-bottomed well plate and the optical density of the released hemoglobin was measured for each well at 415 nm wavelength. The calculated absorbances from the wells were then normalized against the averaged absorbances of the positive and the negative control wells. […]
smiles,measurement,value
"CC[C@H](C)[C@H](NC(=O)CN)C(=O)NCC(=O)N[C@@H](C)C(=O)N[C@H](C(=O)N[C@@H](CC(C)C)C(=O)N[C@@H](CCCCN)C(=O)N[C@H](C(=O)N[C@@H](CC(C)C)C(=O)N[C@H](C(=O)N[C@H](C(=O)NCC(=O)N[C@@H](CC(C)C)C(=O)N1CCC[C@H]1C(=O)N[C@@H](C)C(=O)N[C@@H](CC(C)C)C(=O)N[C@H](C(=O)N[C@@H](CO)C(=O)N[C@@H](Cc1c[nH]c2ccccc12)C(=O)N[C@H](C(=O)N[C@@H](CCCCN)C(=O)N[C@@H](CCCNC(=N)N)C(=O)N[C@@H](CCCCN)C(=O)N[C@@H](CCCNC(=N)N)C(=O)N[C@@H](CCC(N)=O)C(=O)N[C@@H](CCC(N)=O)C(N)=O)[C@@H](C)CC)[C@@H](C)CC)[C@@H](C)O)[C@@H](C)O)C(C)C)C(C)C [melittin, reference compound]",EC50,0.9 µM
